Results taken from patent publication US5610155A, “Condensed diazepinones, processes for preparing them and agents containing these compounds for treating diseases of the central nervous system and for promoting cerebral blood circulation” (Dr. Karl Thomae GmbH, priority 1995, dated 1997).

System: arecoline-induced increase in blood pressure
Experiment: Investigation for central activity: arecoline test, CNS-penetration in vivo
Conditions: rat, i.v.
Experimental: Principle: Arecoline has both a central and a peripherally active component. […] Cerebroavailable antimuscarinics block this central effect. Method: Male rats weighing 300 g are anaesthetised i.p. with urethane (1.2 g/kg). The trachea is […], the animals are respirated with an air/oxygen mixture (80 breaths per minute). The blood pressure is recorded after canulation of the carotid artery by means of a pressure recorder (Bell and Howell Type 4-327-I). The test substances are administered through the jugular vein ([…]). […] The arecoline is administered (in doses of 0.3 mg/kg) at 15 minute intervals. After 2 comparison values, the test substance is injected in increasing doses 5 minutes before the next administration of arecoline. The results obtained were compared with the average starting values and determined as the percentage inhibition.

SMILES	Effect on arecoline-mediated central effects / increase in blood pressure (in words)
CCN(CC)CC1CCCCN1CC(=O)N1c2ccccc2C(=O)Nc2cccnc21 (stereo not drawn) [H]	no effect on the increase in blood pressure caused by arecoline
O=C1Nc2cccnc2N(C(=O)CCCCCN2CCCCC2)c2ccccc21 [O]	no effect on the increase in blood pressure caused by arecoline
CCN(CC)CC1CCCCN1CC(=O)N1c2cc(Cl)ccc2C(=O)Nc2cccnc21 (stereo not drawn) [K]	no effect on the increase in blood pressure caused by arecoline
